Data reported in the supplement of paper PMC12669032.
For some assays here: Shown are results outside the selection of hits, which stands elsewhere.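 How the source made its calls: active = AUC reduced over 20% with Padj below 0.05 in at least 2 of 3 replicates; inactive = otherwise.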 The entries are a selection whose mix differs from that of the whole data set.

Assays:
Test in all cases: growth AUC relative to DMSO control (median of replicates) (fraction); higher = more growth (less inhibition), active = hit call of the paper
Details in all cases: 20 µM; 24 h
Bacteroides caccae = test system: Bacteroides caccae
In short: (§1)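 Gut bacterial monocultures in mGAM were treated with 20 µM compound (1% DMSO) and grown anaerobically at 37 °C in round-bottom 96-well plates from OD600 0.05. OD600 was read hourly for 24 h, with the minimum OD set to 0. Area under the growth curve was normalised to the plate median of solvent-only wells, or to row and column medians on the industrial chemical plate. Each value is the median of three biological replicates, each grown on a separate day.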

Bacteroides clarus = test system: Bacteroides clarus
In short: as §1

Bacteroides dorei = test system: Bacteroides dorei
In short: as §1

Bacteroides stercoris = test system: Bacteroides stercoris
In short: as §1

[1] = test system: Bacteroides thetaiotaomicron
In short: as §1

Bacteroides uniformis = test system: Bacteroides uniformis
In short: as §1

[2] = test system: Bifidobacterium longum subsp. longum
In short: as §1

Clostridium difficile = test system: Clostridium difficile
In short: as §1

Escherichia coli ED1a = test system: Escherichia coli ED1a
In short: as §1

Escherichia coli IAI1 = test system: Escherichia coli IAI1
In short: as §1

Eubacterium rectale = test system: Eubacterium rectale
In short: as §1

[3] = test system: Fusobacterium nucleatum subsp. animalis
In short: as §1

Lactobacillus gasseri = test system: Lactobacillus gasseri
In short: as §1

Lactobacillus paracasei = test system: Lactobacillus paracasei
In short: as §1

Odoribacter splanchnicus = test system: Odoribacter splanchnicus
In short: as §1

[4] = test system: Parabacteroides distasonis
In short: as §1

Parabacteroides merdae = test system: Parabacteroides merdae
In short: as §1

Roseburia intestinalis = test system: Roseburia intestinalis
In short: as §1

Streptococcus salivarius = test system: Streptococcus salivarius
In short: as §1

Measured: growth AUC

CCOc1nc(C(Cl)(Cl)Cl)ns1
inactive: Bacteroides caccae 1 | Bacteroides clarus 0.991 | Bacteroides dorei 0.985 | Bacteroides stercoris 0.906 | [1] 1.02 | Bacteroides uniformis 0.993 | [2] 1.02 | Clostridium difficile 0.994 | Escherichia coli ED1a 0.972 | Escherichia coli IAI1 = 0.967 | Eubacterium rectale 1.01 | [3] 1.01 | Lactobacillus gasseri 1 | Lactobacillus paracasei 0.885 | Odoribacter splanchnicus 1.06 | [4] 1.05 | Parabacteroides merdae 0.979 | Roseburia intestinalis 0.973 | Streptococcus salivarius 0.976

CCOP(=S)(OCC)Oc1ncn(-c2ccccc2)n1
active: [4] 0.701
inactive: Bacteroides caccae 0.927 | Bacteroides clarus 1.01 | Bacteroides dorei 0.95 | Bacteroides stercoris 0.962 | [1] 0.979 | Bacteroides uniformis 0.962 | [2] 1.01 | Clostridium difficile 0.968 | Escherichia coli ED1a 0.99 | Escherichia coli IAI1 = 0.993 | Eubacterium rectale 1.09 | [3] 0.829 | Lactobacillus gasseri 0.955 | Lactobacillus paracasei 1 | Odoribacter splanchnicus 1.02 | Parabacteroides merdae 0.975 | Roseburia intestinalis 0.947 | Streptococcus salivarius 1
